Assays:
[1] = tested on: rhinovirus B14; test: Irreversible inhibition of human rhinovirus serotype 14 3C protease assessed as ratio of Kobs/I by spectrofluorimetric analysis
[2] = molecular target: Mitogen-activated protein kinase 8 (Homo sapiens, UniProt P45983); test: Inhibition of JNK1 (unknown origin) after 1 hr
[3] = molecular target: Mitogen-activated protein kinase 10 (Homo sapiens, UniProt P53779); test: Inhibition of JNK3 (unknown origin) after 1 hr by FRET-based assay

Sequences of proteins named here, by UniProt entry; tags and fusion partners are left off. A change or cut given only in a name is not applied to a line headed by its entry.
UniProt P45983: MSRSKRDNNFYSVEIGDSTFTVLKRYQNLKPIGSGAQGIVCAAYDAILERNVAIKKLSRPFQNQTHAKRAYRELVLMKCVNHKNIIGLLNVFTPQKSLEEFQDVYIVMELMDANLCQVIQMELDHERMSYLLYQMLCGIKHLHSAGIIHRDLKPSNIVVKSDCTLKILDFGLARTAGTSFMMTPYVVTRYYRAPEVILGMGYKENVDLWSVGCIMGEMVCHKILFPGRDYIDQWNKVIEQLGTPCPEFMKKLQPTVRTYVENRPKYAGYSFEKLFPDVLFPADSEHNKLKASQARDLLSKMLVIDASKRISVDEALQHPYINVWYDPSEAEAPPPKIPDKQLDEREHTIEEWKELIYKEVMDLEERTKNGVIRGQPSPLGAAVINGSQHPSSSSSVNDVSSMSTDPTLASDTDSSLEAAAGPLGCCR
UniProt P53779: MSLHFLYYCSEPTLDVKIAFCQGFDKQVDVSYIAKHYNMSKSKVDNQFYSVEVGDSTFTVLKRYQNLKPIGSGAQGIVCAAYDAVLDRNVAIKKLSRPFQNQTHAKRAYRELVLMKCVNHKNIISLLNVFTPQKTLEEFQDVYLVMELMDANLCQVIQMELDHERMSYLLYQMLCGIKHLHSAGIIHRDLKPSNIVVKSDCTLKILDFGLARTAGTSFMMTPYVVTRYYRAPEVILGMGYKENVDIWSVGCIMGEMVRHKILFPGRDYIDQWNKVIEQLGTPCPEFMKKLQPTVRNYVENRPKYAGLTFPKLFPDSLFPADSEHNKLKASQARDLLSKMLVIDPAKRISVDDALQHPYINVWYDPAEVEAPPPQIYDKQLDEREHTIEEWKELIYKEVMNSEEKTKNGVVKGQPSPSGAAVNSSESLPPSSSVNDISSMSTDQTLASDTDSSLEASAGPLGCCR

Ratio [1] [M⁻¹ s⁻¹]	IC50 [2] [nM]	IC50 [3] [nM]	SMILES
25000			CCOC(=O)/C=C/[C@H](CCC(N)=O)NC(=O)[C@H](Cc1ccccc1)NC(=O)[C@H](CC(C)C)NC(=O)OCc1ccccc1
	1 to 19	1 to 19	Cc1cc(NC(=O)c2cccc(NC(=O)/C=C/CN(C)C)c2)ccc1Nc1nccc(-c2cccnc2)n1

Source: ChEMBL document CHEMBL4024702, “Covalent Modifiers: A Chemical Perspective on the Reactivity of α,β-Unsaturated Carbonyls with Thiols via Hetero-Michael Addition Reactions” (J Med Chem, 2017)
